Key:
[1] = biological target: T1, Amine oxidase [flavin-containing] B (Homo sapiens, UniProt P27338); test: Inhibition of human recombinant soluble MAO-B expressed in Pichia pastoris incubated for 30 mins prior to substrate addition measured after 60 mins by MAO-Glo assay
[2] = biological target: T1, Amine oxidase [flavin-containing] B; test: Inhibition of human recombinant soluble MAO-B assessed as change in melting temperature at 100 uM after 20 mins by SYPRO orange staining-based fluorescence assay
In short: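 Soluble human MAO-B was expressed in Pichia pastoris and desalted into PBS pH 7.5 to remove detergent; final concentration 3.4 µM. It was preincubated with serial compound dilutions (0.5–10 µM or 1.7–100 µM) for 20 min at 4 °C in 10% DMSO. 1x SYPRO orange was then added and samples ramped 25–80 °C at 1 °C/s. Boltzmann Tm was taken from the ~50–70 °C region, and ΔTm = Tm(compound) − Tm(DMSO only).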

The chains behind the UniProt entries cited, without tags or fusion partners.
UniProt P27338, whole entry: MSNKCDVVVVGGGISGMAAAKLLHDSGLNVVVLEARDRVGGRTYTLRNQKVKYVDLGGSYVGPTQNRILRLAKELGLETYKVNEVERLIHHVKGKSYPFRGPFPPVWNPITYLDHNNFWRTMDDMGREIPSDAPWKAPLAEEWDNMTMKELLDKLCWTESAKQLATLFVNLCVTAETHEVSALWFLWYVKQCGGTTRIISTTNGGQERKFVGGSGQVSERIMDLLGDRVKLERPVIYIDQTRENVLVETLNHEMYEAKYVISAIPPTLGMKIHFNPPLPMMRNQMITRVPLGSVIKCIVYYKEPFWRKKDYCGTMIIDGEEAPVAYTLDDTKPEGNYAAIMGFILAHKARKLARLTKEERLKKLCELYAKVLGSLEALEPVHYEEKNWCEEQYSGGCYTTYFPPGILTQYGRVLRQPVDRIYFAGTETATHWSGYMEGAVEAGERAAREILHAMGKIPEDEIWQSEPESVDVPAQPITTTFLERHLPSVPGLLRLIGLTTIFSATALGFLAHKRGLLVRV

NNCCc1ccccc1 [PHENELZINE]
Ki [1]: 94 nM
Activity [2]: Not Active

From ChEMBL document CHEMBL3399931, “Reversible and irreversible small molecule inhibitors of monoamine oxidase B (MAO-B) investigated by biophysical techniques” (Bioorg Med Chem, 2015)
